Data taken from ChEMBL document CHEMBL1144889 (J Med Chem, 2003).

Target: T1, Glucocorticoid receptor (Homo sapiens, UniProt P04150)
T1 sequence (P04150 whole entry): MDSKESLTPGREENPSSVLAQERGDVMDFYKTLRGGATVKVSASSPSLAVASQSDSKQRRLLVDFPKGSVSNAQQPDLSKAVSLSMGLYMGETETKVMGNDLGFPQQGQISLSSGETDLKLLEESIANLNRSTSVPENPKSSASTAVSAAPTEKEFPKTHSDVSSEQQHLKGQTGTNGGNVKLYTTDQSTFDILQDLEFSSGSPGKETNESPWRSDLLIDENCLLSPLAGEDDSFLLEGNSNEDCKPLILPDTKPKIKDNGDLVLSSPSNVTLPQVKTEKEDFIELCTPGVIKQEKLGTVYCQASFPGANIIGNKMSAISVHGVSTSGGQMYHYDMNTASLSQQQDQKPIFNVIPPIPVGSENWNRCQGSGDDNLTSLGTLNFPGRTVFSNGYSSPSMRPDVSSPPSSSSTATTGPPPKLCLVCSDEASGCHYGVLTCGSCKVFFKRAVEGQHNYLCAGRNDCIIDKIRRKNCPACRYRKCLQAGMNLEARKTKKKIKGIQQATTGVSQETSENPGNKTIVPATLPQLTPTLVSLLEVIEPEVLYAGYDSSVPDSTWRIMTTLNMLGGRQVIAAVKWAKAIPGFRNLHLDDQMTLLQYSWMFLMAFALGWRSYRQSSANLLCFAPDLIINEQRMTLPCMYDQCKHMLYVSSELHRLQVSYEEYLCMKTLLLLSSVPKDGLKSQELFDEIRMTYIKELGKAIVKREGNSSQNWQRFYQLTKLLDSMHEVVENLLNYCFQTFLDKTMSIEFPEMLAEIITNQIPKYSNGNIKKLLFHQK
Experiment: Transcriptional repression in HepG2 cells expressing human glucocorticoid receptor
Type: functional, cell-based

Structure (SMILES)	EC50 [nM]
C=CCC1Oc2c(Br)cc(O)c(Cl)c2-c2ccc3c(c21)C(C)=CC(C)(C)N3 (configuration not stated)	5
C=CCC1Oc2ccc(F)c(OC)c2-c2ccc3c(c21)C(C)=CC(C)(C)N3 (configuration not stated)	81
